Protein sequences, listed by entry. Tags and fused reporters are not part of them. Residues count along the entry.
UniProt P07766, 23-207: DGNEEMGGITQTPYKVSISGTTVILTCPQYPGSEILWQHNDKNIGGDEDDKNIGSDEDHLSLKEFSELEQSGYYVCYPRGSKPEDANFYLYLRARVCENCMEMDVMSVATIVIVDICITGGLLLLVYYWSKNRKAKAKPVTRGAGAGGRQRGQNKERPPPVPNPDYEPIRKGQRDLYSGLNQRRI

In patent US20200017880A1:

Molecular target: CD3 on Jurkat cells and on PBMCs (UniProt P07766)
Test: flow cytometry; Fab monomers remaining on PBMCs after D-biotin and washing, detected with fresh PE-labelled Strep-Tactin

% of cells within gate: 0.018%
Substance: anti-CD3 Fab fragment derived from antibody OKT3, heavy chain C-terminally fused to Twin-Strep-tag (monomeric Fab)
